A selection: hits, their analogues and other compounds. The true share with any hit is near 4.2%.
NALP1 yeast inh: blocks the NALP1 inflammasome reconstituted in yeast | S. cerevisiae NALP1/ASC/caspase-1 growth, X-gal OD620, 72 h | 280,000 compounds, 0.61% hits | AID 2071 | inhibition, % at 10 µM; in the data active = inhibition mostly above about 24%, no sharp cut-off; inactive = mostly below about 32%
HDAC3 inhib: human HDAC3 inhibition; recombinant HDAC3, fluorogenic peptide/trypsin coupled, fluorescence; inhibition, % at 8.3 µM; AID 2718; 320,000 compounds, 0.15% hits; in the data active = inhibition above about 26%, passing the limit was not always enough
MC4R antag cAMP: antagonists of human melanocortin 4 receptor (MC4R). MC4R-expressing cells, MTII-stimulated cAMP, LANCE TR-FRET. AID 540295. 360,000 compounds, 0.48% hits. inhibition, % at 6.5 µM;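 active = inhibition above its plate's cutoff, the mean of tested wells on that plate plus 3 SD, cut at about 29% in these data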;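 also: 0% = Melanotan II alone and 100% = Melanotan II plus saturating MCL0020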
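System: U2OS cells stably expressing human melanocortin 4 receptor (MC4R). Reagent: Melanotan II challenge after compound preincubation. Doses: 6.5 µM. Times: 30-min compound, 1-h challenge, 1-h detection, room temperature. Measured by: TR-FRET with Eu-cAMP and labeled anti-cAMP, 671 nm. Replicates: singlicate.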
ALR inh: inhibitors of human ALR sulfhydryl oxidase, primary screen, biochemical, H2O2 detection, HRP-luminol luminescence, single point | FAD-linked sulfhydryl oxidase ALR (Homo sapiens), P55789 | purified ALR, DTT oxidation | inhibition, % (concentration not given with the values) | actives 3.8% (n = 290,000) | AID 485317, 2010;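 active = mean and each replicate at 75% or more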;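 also: stock transfer was 7.5 nL into about 7.5 µL; 0% = neutral wells and 100% = wells with inactivated enzyme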
MC4R barr agon: human MC4R agonism via beta-arrestin; P32245; U2OS MC4R beta-arrestin complementation, luminescence; percent of melanotan II response, DMSO zero; activation, % at 8.9 µM; 360,000 compounds, 0.98% hits; AID 540308;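 active = activation above a per-plate cutoff, the mean activation of sample wells on that plate plus 3 SD, cut at about 8% in these data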
UUG fidelity: alters start codon recognition fidelity in yeast | S. cerevisiae UUG-firefly luciferase reporter, luminescence/redox ratio | activity score, % at 18.7 µM | hit rate 0.13% among 350,000 | AID 602363;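 active means replicate mean at a twofold rise or more, about +100% in these data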;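 further: firefly luciferase made from a UUG start codon reports start codon fidelity; reporter light over untreated wells divided by growth signal over untreated wells; some hits fall short of that in this replicate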
U2OS cAMP counter: nonselective cAMP signaling inhibitor, MC4R antagonist counter-screen. inhibition, % at 6.5 µM. 1,600 compounds, 26% hits. AID 602193. parental U2OS, forskolin cAMP, LANCE TR-FRET. shares compounds with MC4R antag cAMP;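 active = mean inhibition over triplicates above the low-control well mean plus 3 SD, set per campaign, cut at about 13% in these data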;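 also: signal is single emission at 671 nm which falls as cellular cAMP rises; 0% = forskolin-stimulated wells and 100% = buffer without forskolin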
MC4R cAMP antag: human MC4R cAMP antagonism confirmation. inhibition, % at 6.5 µM. shares compounds with MC4R antag cAMP. 1,600 compounds, 27% hits. MC4R-expressing cells, MTII-stimulated cAMP, TR-FRET. AID 602195; in the data active = inhibition above about 29%;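 also: 0% = agonist stimulated wells alone and 100% = agonist stimulated wells plus saturating reference antagonist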
* marks the source's active call; other numbers are inactive results; . = no result.

entry | mol | NALP1 yeast inh | HDAC3 inhib | MC4R antag cAMP | ALR inh | MC4R barr agon | UUG fidelity | U2OS cAMP counter | MC4R cAMP antag
1 | COc1ccc(S(=O)(=O)N(C)C[C@H]2Oc3ccc(NC(=O)Cn4cnnn4)cc3C(=O)N([C@@H](C)CO)C[C@@H]2C)cc1 | . | . | . | . | . | 6 | . | .
2 | C[C@@H]1CN([C@@H](C)CO)C(=O)c2cc(C#C[C@@H](C)O)cnc2O[C@H]1CN(C)C(=O)c1ccccc1F | . | . | . | . | . | -5 | . | .
3 | COc1ccccc1CN(C)C(=O)C(NC(=O)Cc1cccc2ccccc12)C(C)C (stereo not drawn) | 13 | 5 | 36* | 4 | 1 | -2 | -9 | -1
4 | O=C(Nc1cc(F)cc(F)c1)c1sc(Cl)nc1-c1ccccc1 | 19 | 3 | 31* | -18 | 6 | -8 | 3 | 9
5 | Cc1cc(=O)n2c(C(=O)Nc3ccc(C)c(C)c3)c(C(=O)Nc3ccccc3)sc2n1 | 3 | -5 | 12 | 5 | -2 | . | . | .
6 | Cc1nc(Cl)sc1C(=O)Nc1cc(F)cc(F)c1 | 6 | 7 | 11 | -7 | 0 | -22 | . | .
7 | Cc1ccc(NC(=O)c2sc(Cl)nc2-c2ccccc2)cc1C | 17 | 8 | 43* | 2 | 5 | -1 | 16* | 46*
8 | C[C@@H]1CN([C@H](C)CO)C(=O)c2cc(/C=C/c3ccccc3)cnc2O[C@@H]1CN(C)S(=O)(=O)c1cn(C)cn1 | . | . | . | . | . | -1 | . | .
9 | Cc1noc(C)c1S(=O)(=O)N(C)C[C@@H]1Oc2c(NC(=O)c3nc4ccccc4s3)cccc2C(=O)N([C@@H](C)CO)C[C@@H]1C | . | . | . | . | . | -11 | . | .
10 | NS(=O)(=O)c1ccc(O)c(NC(=O)c2ccc([N+](=O)[O-])cc2)c1 | -1 | 0 | 29* | -2 | -1 | -4 | -6 | -9
11 | COc1cc(C(=S)N2CCOCC2)ccc1OS(=O)(=O)c1ccccc1[N+](=O)[O-] | 18 | -5 | 33* | -35 | -1 | . | -1 | -5
12 | O=C(Oc1cccc(C(=S)N2CCOCC2)c1)c1ccc([N+](=O)[O-])cc1[N+](=O)[O-] | 0 | 0 | 37* | 20 | -1 | . | 6 | 29*
13 | O=C(C[C@@H]1C[C@@H]2c3cc(NC(=O)Nc4ccccc4)ccc3O[C@@H]2[C@@H](CO)O1)NCc1ccccn1 | . | . | . | . | . | -9 | . | .
14 | COC(=O)COc1cccc(NC(=O)C(c2ccccc2)c2ccccc2)c1 | 6 | 0 | 29* | . | 2 | -14 | 7 | 15
15 | O=C(O)COc1cccc(NC(=O)c2ccccc2)c1 | -1 | -4 | 10 | -4 | -1 | -6 | . | .
16 | O=C(c1cnc(Cl)c(Cl)c1)N1CCN(S(=O)(=O)c2ccc3ccccc3c2)CC1 | . | . | 36* | . | -4 | . | 17* | 54*
17 | O=C(c1ccncc1)N1CCN(S(=O)(=O)c2ccc3ccccc3c2)CC1 | 8 | -4 | 3 | -3 | -2 | -1 | . | .
18 | CCN(CC)S(=O)(=O)c1ccc(OC)c(NC(=O)Cn2cnc3c2c(=O)n(C)c(=O)n3C)c1 | -7 | 3 | 33* | -5 | -1 | . | 3 | 9
19 | O=C(C[C@@H]1C=C[C@H](NC(=O)C2CC2)[C@@H](CO)O1)NCCCN1CCOCC1 | . | . | . | . | . | -15 | . | .
20 | COc1ccc(C(C(=O)NC2CCCCC2)N(C(=O)CCCC(=O)Nc2ccccn2)c2ccc3c(c2)OCCO3)cc1 (stereo not drawn) | 5 | -2 | 33* | -13 | 1 | -10 | -1 | -14
21 | O=C(CCCC(=O)N(c1ccc2c(c1)OCCO2)C(C(=O)NC1CCCCC1)c1ccc(Cl)cc1)Nc1ccccn1 (stereo not drawn) | 26 | -1 | 6 | -6 | 0 | -12 | . | .
22 | O=C(Nc1cccc([N+](=O)[O-])c1)c1ccc2c(c1)C(=O)N(c1ccccn1)C2=O | 15 | -6 | 35* | 3 | -1 | -21 | 12 | 18
23 | CC(=O)c1ccc(NC(=O)c2ccc3c(c2)C(=O)N(c2ccccn2)C3=O)cc1 | 13 | -6 | -4 | 3 | -1 | 16 | . | .
24 | Cc1noc(C)c1S(=O)(=O)Nc1ccc2c(c1)C(=O)N([C@@H](C)CO)C[C@@H](C)[C@H](CN(C)C(=O)Nc1ccccc1)OCCCC[C@@H](C)O2 | . | . | . | . | . | -3 | . | .
25 | O=C(c1cccs1)N(Cc1nc2sc3c(c2c(=O)[nH]1)CCCC3)C1CCCC1 | . | 0 | 30* | -6 | 4 | -25 | -14 | -28
26 | Cc1sc2nc(CN(C(=O)c3cccs3)C3CCCC3)[nH]c(=O)c2c1C | 11 | -3 | 9 | -9 | 0 | -2 | . | .
27 | O=C(CCC1CCCN(Cc2ccc3c(c2)OCCO3)C1)NCc1ccccc1F (stereo not drawn) | . | 1 | 29* | 2 | -3 | -25 | -2 | 2
28 | C[C@H](CO)N1C[C@H](C)[C@H](CN(C)CC2CCCCC2)Oc2ccc(NC(=O)Nc3cccc4ccccc34)cc2C1=O | . | . | . | . | . | 0 | . | .
29 | COc1ccc(N2CCN(c3nc(Cl)nc(Nc4ccc(F)cc4)n3)CC2)cc1 | 26 | 2 | 38* | . | -3 | . | 14* | 55*
30 | CCOC(=O)CSc1ccc(-c2nc3cc(C)c(C)cc3[nH]2)cn1 | 13 | -2 | 34* | 55 | -3 | -10 | 8 | 6

Whole records, quoted from the list. Values in the order: NALP1 yeast inh, HDAC3 inhib, MC4R antag cAMP, ALR inh, MC4R barr agon, UUG fidelity, U2OS cAMP counter, MC4R cAMP antag
COc1ccc(N2CCN(c3nc(Cl)nc(Nc4ccc(F)cc4)n3)CC2)cc1 reads 26, 2, 38*, ., -3, ., 14*, 55*
O=C(c1ccncc1)N1CCN(S(=O)(=O)c2ccc3ccccc3c2)CC1 reads 8, -4, 3, -3, -2, -1, ., .
O=C(Nc1cc(F)cc(F)c1)c1sc(Cl)nc1-c1ccccc1 reads 19, 3, 31*, -18, 6, -8, 3, 9
O=C(c1cnc(Cl)c(Cl)c1)N1CCN(S(=O)(=O)c2ccc3ccccc3c2)CC1 reads ., ., 36*, ., -4, ., 17*, 54*
CC(=O)c1ccc(NC(=O)c2ccc3c(c2)C(=O)N(c2ccccn2)C3=O)cc1 reads 13, -6, -4, 3, -1, 16, ., .

Next part:
entry | mol | NALP1 yeast inh | HDAC3 inhib | MC4R antag cAMP | ALR inh | MC4R barr agon | UUG fidelity | U2OS cAMP counter | MC4R cAMP antag
31 | C[C@@H]1CCCCO[C@H](CN(C)C(=O)C2CCCCC2)[C@@H](C)CN([C@@H](C)CO)C(=O)c2cc(NS(=O)(=O)c3cn(C)cn3)ccc2O1 | . | . | . | . | . | 7 | . | .
32 | Cc1ccccc1C(=O)Nc1ccccc1N1CCCCC1 | -2 | 11 | 35* | -12 | 8 | . | 1 | -2
33 | COc1ccc(NC(=S)N2CCN(C(c3ccccc3)c3ccccc3)CC2)cc1OC | 24 | 12 | 29* | . | -2 | -28 | 3 | 1
34 | CCN(CC(=O)Nc1ccc(Cl)c(S(=O)(=O)N(C)C)c1)CC(=O)NC(C)C | 1 | -1 | 30* | 2 | 0 | -5 | 1 | -15
35 | CCNC(=O)Cn1cc(C(F)(F)F)cc(Cl)c1=O | 8 | 8 | 30* | -5 | -2 | . | -1 | -2
36 | COc1ccc(NC(=O)N(C)C[C@H]2OCCCC[C@@H](C)Oc3ccc(NC(=O)Nc4ccc(F)cc4)cc3C(=O)N([C@H](C)CO)C[C@@H]2C)cc1 | . | . | . | . | . | -7 | . | .
37 | Cc1ccc(S(=O)(=O)N(C)C[C@H]2Oc3ccc(NS(=O)(=O)c4ccccc4)cc3C(=O)N([C@H](C)CO)C[C@H]2C)cc1 | . | . | . | . | . | 3 | . | .
38 | COCCCNC(=O)/C=C1\Sc2ccccc2N(Cc2ccccc2F)C1=O | 12 | . | 44* | -11 | 0 | 1 | 46* | 34*
39 | CC(=O)c1ccc(S(=O)(=O)NC2CCCCCCC2)cc1 | 28 | 7 | 35* | -9 | 1 | 0 | -4 | -16

Screens from PubChem BioAssay.
